Results reported in patent publication US9656996B2, “Fused heterocyclic compound, preparation method therefor, pharmaceutical composition, and uses thereof” (SHANGHAI YINGLI PHARMACEUTICAL CO., LTD., priority 2013, dated 2017).

Amino acid sequences for entries named in this document (tags omitted). A change or cut given only in a name is not applied to a line headed by its entry.
UniProt O00329, whole entry: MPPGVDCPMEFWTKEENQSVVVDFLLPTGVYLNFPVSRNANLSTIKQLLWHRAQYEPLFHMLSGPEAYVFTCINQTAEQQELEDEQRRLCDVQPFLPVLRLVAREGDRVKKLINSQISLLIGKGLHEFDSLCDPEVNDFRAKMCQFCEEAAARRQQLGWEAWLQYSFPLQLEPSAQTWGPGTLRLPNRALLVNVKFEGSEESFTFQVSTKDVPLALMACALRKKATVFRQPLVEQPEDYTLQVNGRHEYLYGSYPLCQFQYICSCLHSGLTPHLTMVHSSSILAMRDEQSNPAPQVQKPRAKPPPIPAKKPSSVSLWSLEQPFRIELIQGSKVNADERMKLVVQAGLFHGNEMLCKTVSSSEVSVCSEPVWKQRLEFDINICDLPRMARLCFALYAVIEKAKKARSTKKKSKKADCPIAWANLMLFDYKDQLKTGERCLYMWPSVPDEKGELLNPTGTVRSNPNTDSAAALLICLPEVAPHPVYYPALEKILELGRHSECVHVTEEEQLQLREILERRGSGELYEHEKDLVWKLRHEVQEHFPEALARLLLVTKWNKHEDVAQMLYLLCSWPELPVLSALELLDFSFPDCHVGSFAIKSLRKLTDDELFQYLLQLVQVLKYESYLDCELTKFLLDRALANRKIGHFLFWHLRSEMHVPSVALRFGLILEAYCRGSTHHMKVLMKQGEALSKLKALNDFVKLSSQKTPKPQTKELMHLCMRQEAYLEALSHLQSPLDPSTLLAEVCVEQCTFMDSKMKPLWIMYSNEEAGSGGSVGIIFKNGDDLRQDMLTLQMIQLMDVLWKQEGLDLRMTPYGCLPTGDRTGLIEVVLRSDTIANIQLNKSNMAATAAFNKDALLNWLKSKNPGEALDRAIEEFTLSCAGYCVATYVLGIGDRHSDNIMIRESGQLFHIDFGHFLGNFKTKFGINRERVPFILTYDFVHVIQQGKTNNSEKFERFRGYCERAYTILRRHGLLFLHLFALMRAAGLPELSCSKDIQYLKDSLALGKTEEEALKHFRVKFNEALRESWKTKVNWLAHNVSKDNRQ
UniProt P42336, whole entry: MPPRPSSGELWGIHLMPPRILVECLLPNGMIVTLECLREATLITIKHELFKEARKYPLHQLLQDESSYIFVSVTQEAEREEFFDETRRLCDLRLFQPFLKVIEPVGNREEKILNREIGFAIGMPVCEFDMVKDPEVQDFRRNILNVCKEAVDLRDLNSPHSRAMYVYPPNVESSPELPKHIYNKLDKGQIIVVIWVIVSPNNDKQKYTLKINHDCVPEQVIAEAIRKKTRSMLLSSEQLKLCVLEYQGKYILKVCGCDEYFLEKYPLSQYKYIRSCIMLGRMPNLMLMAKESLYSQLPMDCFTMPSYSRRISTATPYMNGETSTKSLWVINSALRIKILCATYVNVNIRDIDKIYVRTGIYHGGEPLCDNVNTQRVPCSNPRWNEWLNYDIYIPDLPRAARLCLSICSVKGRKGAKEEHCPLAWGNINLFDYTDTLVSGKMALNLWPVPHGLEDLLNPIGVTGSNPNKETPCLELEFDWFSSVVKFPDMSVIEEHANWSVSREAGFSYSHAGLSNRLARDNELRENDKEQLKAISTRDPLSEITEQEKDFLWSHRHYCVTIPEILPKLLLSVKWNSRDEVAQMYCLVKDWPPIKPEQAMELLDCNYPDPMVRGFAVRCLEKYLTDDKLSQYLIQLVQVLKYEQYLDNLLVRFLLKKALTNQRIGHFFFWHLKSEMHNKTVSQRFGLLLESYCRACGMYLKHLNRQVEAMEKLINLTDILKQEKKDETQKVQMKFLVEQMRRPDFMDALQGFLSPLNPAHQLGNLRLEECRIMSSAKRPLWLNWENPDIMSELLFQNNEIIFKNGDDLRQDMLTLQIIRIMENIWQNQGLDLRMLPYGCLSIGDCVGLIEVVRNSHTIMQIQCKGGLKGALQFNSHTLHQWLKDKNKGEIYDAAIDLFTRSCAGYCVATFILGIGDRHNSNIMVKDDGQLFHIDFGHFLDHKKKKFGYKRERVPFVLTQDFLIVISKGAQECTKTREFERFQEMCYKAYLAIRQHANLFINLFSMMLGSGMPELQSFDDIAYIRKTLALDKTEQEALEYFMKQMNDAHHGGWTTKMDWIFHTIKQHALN
UniProt P27986, whole entry partner: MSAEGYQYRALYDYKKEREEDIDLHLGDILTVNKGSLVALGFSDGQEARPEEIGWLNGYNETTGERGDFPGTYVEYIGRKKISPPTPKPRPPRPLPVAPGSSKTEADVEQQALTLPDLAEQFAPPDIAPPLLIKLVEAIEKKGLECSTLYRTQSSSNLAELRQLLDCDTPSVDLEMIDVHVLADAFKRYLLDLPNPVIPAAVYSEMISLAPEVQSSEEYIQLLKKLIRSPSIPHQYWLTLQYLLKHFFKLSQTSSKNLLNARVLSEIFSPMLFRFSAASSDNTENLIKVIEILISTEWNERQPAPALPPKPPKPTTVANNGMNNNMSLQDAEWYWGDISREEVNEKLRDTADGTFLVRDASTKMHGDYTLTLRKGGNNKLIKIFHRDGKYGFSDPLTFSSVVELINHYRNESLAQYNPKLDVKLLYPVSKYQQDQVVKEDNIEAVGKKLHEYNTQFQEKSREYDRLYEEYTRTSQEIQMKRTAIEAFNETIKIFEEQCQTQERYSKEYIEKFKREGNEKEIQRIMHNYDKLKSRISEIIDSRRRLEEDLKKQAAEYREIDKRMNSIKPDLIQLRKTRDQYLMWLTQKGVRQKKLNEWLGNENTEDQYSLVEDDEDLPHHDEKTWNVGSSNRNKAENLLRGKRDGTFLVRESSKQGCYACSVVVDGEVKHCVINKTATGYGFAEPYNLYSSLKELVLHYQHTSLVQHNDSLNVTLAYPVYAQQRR

Assays:
PI3Kδ = PI3Kδ (Homo sapiens (Human), UniProt O00329); assay: PI3Kδ enzymatic inhibitory activity IC50 assay; conditions: read-out: PI3Kδ IC50; luminescence readout, 25 μM ATP, 50 μM PIP2, 2 hours at room temperature
Method: (§1) 1. Buffer preparation: 50 mM HEPES, pH 7.5, 3 mM MgCl2, 1 mM EGTA, 100 mM NaCl, 0.03% CHAPS.
(§2) 2. The compound was formulated in 100% DMSO in a concentration gradient, and deposited to a 384-well plate with a final DMSO concentration of 1%.
(§3) 3. PI3Kα, PI3Kδ, PI3Kβ and PI3Kγ enzymes (purchased from EMD Millipore) were diluted to the optimal concentration with the following buffer: 50 mM HEPES, pH 7.5, 3 mM MgCl2, 1 mM EGTA, 100 mM NaCl, 0.03% CHAPS, 2 mM DTT, transferred to a 384-well plate and incubated with the compound for a certain time.
(§4) 4. The substrate was diluted to an optimal concentration with the following buffer: 50 mM HEPES, pH 7.5, 3 mM MgCl2, 1 mM EGTA, 100 mM NaCl, 0.03% CHAPS, 2 mM DTT, 50 μM PIP2, 25 μM ATP and added to the 384-well plate to initiate the reaction. PI3Kα, PI3Kβ and PI3Kγ were allowed to react for 1 h at room temperature, and PI3Kδ reacted for 2 hours at room temperature. Another 10 μL ADP-Glo Detection Reagent also needed to be added for PI3Kβ and PI3Kγ, and then equilibrated at room temperature for 30 minutes.
(§5) 5. Luminescence was read by using Flexstation, and the inhibition rate was calculated as the average value of two tests.

PI3Kα = PI3Kα (Homo sapiens (Human), UniProt P42336); assay: PI3Kα enzymatic inhibitory activity IC50 assay; conditions: selectivity ratio
Method: as §1, §2, §3, §4, §5

SMILES	IC50 (PI3Kδ) [nM]	α/δ (ratio of IC50 values against PI3Kα to PI3Kδ) (PI3Kα)
COc1ncc(-c2nc(N3CCOCC3)nc3c(CN4CCC(N5CCCC5=O)CC4)cc(F)cc23)cc1NS(C)(=O)=O	28	28
CC(C)(O)C1CCN(Cc2cnc3c(-c4cccc5[nH]ccc45)nc(N4CCOCC4)cn23)CC1	241	>41
